Test system: evoked locomotor activity
Assay: Rotarod assay of evoked locomotor activity / sedation
Conditions: C57BL/6J mice; 15 30 and 60 mg/kg i.p., U50,488 10 mg/kg i.p. (up to 60 min after administration)

Substance: trans-(±)-3,4-dichloro-N-methyl-N-[2-(1-pyrrolidinyl)cyclohexyl]benzeneacetamide hydrochloride
- effect on evoked locomotor activity, rotarod (result in words): significantly impaired evoked locomotor activity
